From paper PMC4136963, “Structure-Based Design and Synthesis of Antiparasitic Pyrrolopyrimidines Targeting Pteridine Reductase 1” (Journal of Medicinal Chemistry, 2014) come the findings set out here.

For this data set the following is noted: mice.

For `Nc1nc(N)c2c(-c3ccccc3)c(-c3ccc(F)cc3)[nH]c2n1` [35b, 6-(4-Fluorophenyl)-5-phenyl-7H-pyrrolo[2,3-d]pyrimidine-2,4-diamine], the “MTD study outcome at 10 mg/kg” value (10 mg/kg) is listed as “no clinical signs”. For the same compound, the “MTD study outcome at 30 mg/kg” value (30 mg/kg) is recorded as “some transient clinical signs”. In addition, the “MTD study outcome at 100 mg/kg” value (100 mg/kg) was “severe toxicity and fatality”.
